Ab-14 light chain CDR variants: yeast mating affinities

Source: Li et al. 2023 (doi:10.1038/s41467-023-39022-2), MIT Lincoln Laboratory and A-Alpha Bio; data file from the FLAb repository.

The target is the same throughout: PDVDLGDISGINAS, from the HR2 region of SARS-CoV-2 spike.

Each scFv is VH, the linker GGGGSGGGGSGGGGS, VL, as in the parent Ab-14, and differs from it in the CDRs of the light chain only.
VH: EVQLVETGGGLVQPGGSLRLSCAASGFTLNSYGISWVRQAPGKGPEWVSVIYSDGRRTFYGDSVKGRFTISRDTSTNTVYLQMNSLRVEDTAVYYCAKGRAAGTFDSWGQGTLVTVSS
VL: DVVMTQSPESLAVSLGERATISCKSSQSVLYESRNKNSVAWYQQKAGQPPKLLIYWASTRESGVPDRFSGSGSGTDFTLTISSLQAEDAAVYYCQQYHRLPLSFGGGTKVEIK

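Phage display of a naive human antibody library on the peptide gave the parent. These sequences belong to a second round, designed from the earlier measurements on random variants of the parent. Their group label is 14L_GP_Gen (GP: Gaussian process model; Gen: genetic algorithm; a sequence that several methods proposed may carry one label only). Affinity was read by AlphaSeq, a pooled yeast mating assay with surface-displayed partners. Pairs that bind mate more often; barcode pairs of the diploids are counted by sequencing. Scores were corrected for input abundance and mapped to Kd with protein pairs of known affinity run in the same pool. There are six technical replicates.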

The parent's light chain CDRs are KSSQSVLYESRNKNSVA, WASTRES, QQYHRLPLS; each variant's own CDRs replace them letter for letter. The read-out is the apparent dissociation constant on a log10 scale (nM): the lower, the stronger. The authors' rule: three or more of the six replicates give a measured affinity, fewer mean a poor binder.

CDR-L1 | CDR-L2 | CDR-L3 | log10 Kd, replicates | control signals
KLSQSCLYESRNKNSVA | NASTRCS | QQYHRLPLS | 0.56 / 0.28 / 0.35 / 0.63 / 0.40 / 0.52 | 2/18 (2.18)
KLSQSVLYESRNKNSVA | NASTREQ | QQYHRLPLE | -0.22 / -0.25 / -0.54 / -0.44 / -0.37 / -0.04 | 2/18 (3.08)
KVQQSVLYESRNKNSVA | HASTRES | QQYHRLPLS | 0.37 / -0.12 / 0.08 / -0.07 / 0.07 / 0.14 | 0/18
KSSQSVLYESRNKNSVA | EASTRES | QDYHRLPLS | 0.45 / 0.32 / 0.05 / -0.10 / 0.04 / 0.22 | 1/18 (3.36)
KLSQSDPYESRNKNSVA | NASTRES | QQYHRLPLS | 0.33 / 0.40 / 0.18 / 0.17 / 0.24 / 0.78 | 1/18 (2.15)
KLSQSWLYESRNKWSVA | NASTRES | QQYHRLPLS | 0.33 / 0.51 / 0.79 / 0.07 / 0.32 / 0.26 | 0/18
KLQQSVLYEDRNKNSVA | NASTRLS | QQYHRLPLS | -0.24 / -0.36 / -0.48 / -0.46 / -0.35 / -0.24 | 4/18 (2.76)
KLSQSVLYESRNKNAVA | GASTRES | QQYHRLPLS | -0.45 / -0.62 / -0.76 / -0.63 / -0.65 / -0.52 | 2/18 (1.99)
KVSPSMLYESRNKNSVA | NASTRES | QQYHRLPLS | -0.03 / -0.15 / -0.15 / 0.00 / -0.09 / 0.18 | 0/18
KFSQSDLYESRNKNSVA | EASTREQ | QQYHRLPLS | 0.04 / 0.09 / -0.01 / -0.02 / -0.04 / 0.12 | 1/18 (3.21)
KLEQSGLYESRNKNSVA | NASTRES | QQYHRLPLS | -0.02 / -0.10 / -0.27 / -0.38 / -0.13 / 0.08 | 0/18
KLSQSHLYESRMKNSVA | NASTREQ | QQYHRLPLS | 0.31 / 0.36 / 0.28 / 0.10 / 0.21 / 0.34 | 3/18 (3.13)
KLQQSWLYESRNKNSVA | NASTRCD | QQYHRLPLS | 0.23 / 0.12 / -0.02 / -0.28 / -0.02 / 0.00 | 3/18 (3.68)
KLSQSMMYESRNKNSVA | NASTRES | QQYHRLPLS | 0.16 / -0.01 / -0.19 / -0.08 / 0.04 / 0.05 | 2/18 (4.04)
KLSQSVLYESRNKNSVA | NASQREC | QQYHRLPLS | 0.05 / 0.13 / -0.09 / -0.13 / -0.18 / 0.04 | 0/18
KLSQSVLYEQRNKNSVA | DASTRLS | QQYHRLPLS | -0.19 / -0.31 / -0.43 / -0.49 / -0.39 / -0.24 | 4/18 (2.47)
KLSQSDLYESRNKNSVA | AASTRES | QQYHRLPLS | 0.01 / -0.15 / -0.39 / -0.43 / -0.30 / -0.14 | 0/18
KLSQSVPYESRMKNSVA | NASQRES | QQYHRLPLS | 0.55 / 0.35 / 0.15 / 0.33 / 0.04 / 0.49 | 1/18 (2.95)
KLPQSELYESRNKNSVA | EASTRLS | QQYHRLPLS | 0.04 / 0.03 / 0.03 / -0.18 / -0.10 / 0.11 | 0/18
KFSQSELYESRNKNSVA | NGSTRES | QQYHRLPLS | -0.41 / -0.44 / -0.69 / -0.89 / -0.30 / -0.58 | 0/18
KVSQSVLYESRNKNSVA | EASTRES | QDYHRLPLS | 0.49 / 0.17 / 0.41 / 0.42 / 0.41 / 0.20 | 0/18
KLYQSNLYESRNKNSVA | NASQRES | QQYHRLPLS | 0.08 / 0.24 / 0.04 / 0.12 / 0.03 / 0.23 | 1/18 (2.43)
KLSQSHLYESRNKNSVA | HASTRES | QQYHRLPLS | 0.70 / 0.36 / 0.45 / 0.38 / 0.31 / 0.28 | 0/18
KLSQSVLYESRMKNSVA | NASERES | QQYHRLPLS | 1.01 / 0.12 / 0.34 / 0.33 / 0.56 / 0.48 | 1/18 (2.68)
KLSQSVLYESREKNSVA | NASQRES | QQYHRLPLS | -0.13 / -0.25 / -0.38 / -0.35 / -0.40 / -0.08 | 1/18 (2.62)
KSQQSELYESRNKNSVA | EASTRES | QQYHRLPLS | -0.03 / -0.45 / -0.34 / -0.64 / -0.45 / -0.42 | 0/18
KFSQSELYESRNKNSVA | NASKRES | QQYHRLPLS | 0.16 / -0.33 / 0.14 / -0.25 / -0.12 / 0.18 | 0/18
KVSQSVLYESRNKNSVA | NASQRES | QDYHRLPLS | 0.34 / 0.18 / -0.03 / -0.03 / 0.04 / 0.31 | 2/18 (3.10)
KLQQSNPYESRNKNSVA | NASTRES | QQYHRLPLS | 0.42 / 0.04 / 0.24 / 0.01 / 0.11 / 0.13 | 0/18
KLPQSELYESRNKNSVA | NASTRLS | QQYHRLPLS | -0.08 / -0.16 / -0.24 / -0.30 / -0.24 / -0.09 | 1/18 (2.97)
KMPQSVLYESRNKNSVA | EASTRES | QQYHRLPLS | -0.24 / -0.38 / -0.35 / -0.32 / -0.30 / -0.18 | 1/18 (2.41)

The parent sequence was in this pool as ten entries: three were never detected, three once, and four in most replicates, with averages from 0.34 to 2.37. As a blank, each scFv also met three strains without target: over all light chain designs, 4% of these pairings were detected, typically at 2.64 and seldom below 1.59. The control count says in how many pairings with the empty strains this scFv gave a signal, with their mean in brackets. The range of this assay differs from that of the first round, and the authors advise against merging the two.